Experimental data published in ChEMBL document CHEMBL5236596, “Discovery and Optimization of N-Acyl-6-sulfonamide-tetrahydroquinoline Derivatives as Novel Non-Steroidal Selective Glucocorticoid Receptor Modulators” (J Med Chem, 2022).

Target: T1, Mineralocorticoid receptor (Homo sapiens) (UniProt P08235)
T1 sequence (whole entry): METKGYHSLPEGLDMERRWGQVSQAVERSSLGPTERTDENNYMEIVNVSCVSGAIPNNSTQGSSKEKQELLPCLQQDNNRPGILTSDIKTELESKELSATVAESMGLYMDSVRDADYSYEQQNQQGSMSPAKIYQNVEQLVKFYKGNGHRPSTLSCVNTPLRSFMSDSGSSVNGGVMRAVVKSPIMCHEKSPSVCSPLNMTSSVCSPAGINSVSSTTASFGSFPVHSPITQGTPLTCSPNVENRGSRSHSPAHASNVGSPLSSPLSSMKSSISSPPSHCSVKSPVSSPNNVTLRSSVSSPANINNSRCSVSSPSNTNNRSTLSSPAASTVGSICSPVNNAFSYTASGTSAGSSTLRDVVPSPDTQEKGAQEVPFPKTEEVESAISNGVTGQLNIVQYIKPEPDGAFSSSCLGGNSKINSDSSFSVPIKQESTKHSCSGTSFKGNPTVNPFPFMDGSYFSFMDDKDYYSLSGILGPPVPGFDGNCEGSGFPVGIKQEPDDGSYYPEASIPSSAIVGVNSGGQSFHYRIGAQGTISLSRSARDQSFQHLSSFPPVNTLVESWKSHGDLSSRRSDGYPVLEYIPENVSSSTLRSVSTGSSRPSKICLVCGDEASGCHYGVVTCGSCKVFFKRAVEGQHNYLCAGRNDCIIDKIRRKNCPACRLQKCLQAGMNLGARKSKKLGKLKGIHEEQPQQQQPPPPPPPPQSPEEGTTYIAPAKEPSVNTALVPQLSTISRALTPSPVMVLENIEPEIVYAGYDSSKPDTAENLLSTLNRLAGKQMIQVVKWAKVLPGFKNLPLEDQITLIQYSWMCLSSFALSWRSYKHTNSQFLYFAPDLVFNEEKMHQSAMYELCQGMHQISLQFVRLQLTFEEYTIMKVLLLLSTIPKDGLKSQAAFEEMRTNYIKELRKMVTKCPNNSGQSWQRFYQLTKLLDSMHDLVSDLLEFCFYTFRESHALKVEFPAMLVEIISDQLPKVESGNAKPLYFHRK
Assay: Activation of human mineralocorticoid receptor transfected in HEK293T cells at 10 nM incubated for 16 hrs by luciferase based analysis
Assay type: cell-based
Details: filed as activator

Activity: Active
SMILES: C[C@]12CCC(=O)C=C1CC[C@@H]1[C@@H]2[C@@H](O)C[C@]2(C=O)[C@@H](C(=O)CO)CC[C@@H]12

The source made the active and inactive calls. The rule behind the calls is not given here.
